# Source: US8609644B2, “Amino derivatives of androstanes and androstenes as medicaments for cardiovascular disorders” (priority 2006, dated 2013)
# Target: Na+, K+-ATPase (Canis lupus familiaris, UniProt P50997)
# Details: read-out: Na+, K+-ATPase Inhibition IC50; dog kidney enzyme
row,Compound,IC50 [nM]
1,CC12CCC3C(CC(=NO)C4CC(=NOCCN)CCC43C)C1CCC2=O (stereo not shown),24
2,C[C@]12CC[C@H](NC(=O)CCN)CC1/C(=N/O)C[C@@H]1[C@@H]2CC[C@]2(C)C(=O)CC[C@@H]12 (stereo partly shown),70000
3,CC12CCC3C(CC(=NO)C4CC(C=CCCN)CCC43C)C1CCC2=O (stereo not shown),250
4,C[C@]12CC[C@H](OC(=O)NCCN)CC1/C(=N/O)C[C@@H]1[C@@H]2CC[C@]2(C)C(=O)CC[C@@H]12 (stereo partly shown),6200
5,CNCCCSC1CCC2(C)C(C1)C(=NO)CC1C3CCC(=O)C3(C)CCC12 (stereo not shown),1700
6,CC(CN)C(=O)O[C@H]1CC[C@@]2(C)C(C1)/C(=N/O)C[C@@H]1[C@@H]2CC[C@]2(C)C(=O)CC[C@@H]12 (stereo partly shown),1100
7,C[C@]12CC[C@H](OC(=O)CN)CC1/C(=N/O)C[C@@H]1[C@@H]2CC[C@]2(C)C(=O)CC[C@@H]12 (stereo partly shown),90000
8,CNCCON=C1CC[C@]2(C)[C@H]3CC[C@]4(C)C(=O)CC[C@H]4[C@@H]3C/C(=N\O)[C@@]2(O)C1,1300
9,CNCCCOC1CCC2(C)C(C1)C(=NO)CC1C3CCC(=O)C3(C)CCC12 (stereo not shown),1100
10,C[C@]12CC[C@H](NC(=O)CCCN)CC1/C(=N/O)C[C@@H]1[C@@H]2CC[C@]2(C)C(=O)CC[C@@H]12 (stereo partly shown),85000
11,"CC12CCC3C(C(=NO)CC4CC(=NOCCN)CCC43C)C1CCC2=O (mixture of isomers) [I-bs, (E,Z)-3-(2-Aminoethoxyimino)-7-(E)-hydroxyiminoandrostane-17-one fumarate]",130
12,CC12CCC3C(C(O)C(=NO)C4CC(=NOCCN)CCC43C)C1CCC2=O (stereo not shown),2100
13,C[C@]12CCC(=NO[C@H]3CC[C@@H](N)CC3)C[C@@H]1/C(=N/O)C[C@@H]1[C@@H]2CC[C@]2(C)C(=O)CC[C@@H]12,85000
14,CC12CCC3C(CC(=NO)C4CC(C=CCCCN)CCC43C)C1CCC2=O (stereo not shown),1100
15,"CNCCCON=C1CC[C@]2(C)[C@H]3CC[C@]4(C)C(=O)CC[C@H]4[C@@H]3C/C(=N\O)[C@@]2(O)C1 (mixture of isomers) [I-cr, (E,Z) 3-(3-N-Methylaminopropoxyimino)-5α-hydroxy-6-(E)-hydroxyiminoandrostan-17-one hydrochloride]",430
16,C[C@]12CC[C@H](OC(=O)CCCN)CC1/C(=N/O)C[C@@H]1[C@@H]2CC[C@]2(C)C(=O)CC[C@@H]12 (stereo partly shown),6000
17,CC(N)CC(=O)O[C@H]1CC[C@@]2(C)C(C1)/C(=N/O)C[C@@H]1[C@@H]2CC[C@]2(C)C(=O)CC[C@@H]12 (stereo partly shown),950
18,C[C@]12CC[C@@H](SCCN)CC1/C(=N/O)C[C@@H]1[C@@H]2CC[C@]2(C)C(=O)CC[C@@H]12 (stereo partly shown),40000
19,C[C@]12CC[C@H](SCCN)CC1/C(=N/O)C[C@@H]1[C@@H]2CC[C@]2(C)C(=O)CC[C@@H]12 (stereo partly shown),20000
20,CC1C(=NO)C2CC(=NOCCN)CCC2(C)C2CCC3(C)C(=O)CCC3C12 (stereo not shown),620
21,CC(C)(N)CON=C1CC[C@@]2(C)[C@H](C1)/C(=N/O)C[C@@H]1[C@@H]2CC[C@]2(C)C(=O)CC[C@@H]12,25000
22,"C[C@]12CC[C@H](OC(=O)CCN)CC1/C(=N/O)C[C@@H]1[C@@H]2CC[C@]2(C)C(=O)CC[C@@H]12.Cl (stereo partly drawn) [I-dm, 3β-(3-Aminopropionyloxy)-6-(E)-hydroxyiminoandrostan-17-one hydrochloride]",470
23,CNCCCON=C1CCC2(C)C(C1)C(=NO)CC1C3CCC(=O)C3(C)CCC12 (stereo not shown),200
24,CNCCCON=C1CCC2(C)C(C1)CC(=NO)C1C3CCC(=O)C3(C)CCC12 (stereo not shown),610
25,C[C@]12CC[C@H](SCCCN)CC1/C(=N/O)C[C@@H]1[C@@H]2CC[C@]2(C)C(=O)CC[C@@H]12 (stereo partly shown),1500

# Structures can show the parent of a compound that is named as a salt.
